Patent US9777004B2, “Amino-substituted imidazopyridazines” (Bayer Intellectual Property GmbH, priority 2012, dated 2017)

Sequences of proteins named here, by UniProt entry; tags and fusion partners are left off. A line that says so, or that is headed by a name, gives the form on record, which may keep a tag or linker.
UniProt Q9BUB5, other isoform, or with tags, fused parts or gaps T344D: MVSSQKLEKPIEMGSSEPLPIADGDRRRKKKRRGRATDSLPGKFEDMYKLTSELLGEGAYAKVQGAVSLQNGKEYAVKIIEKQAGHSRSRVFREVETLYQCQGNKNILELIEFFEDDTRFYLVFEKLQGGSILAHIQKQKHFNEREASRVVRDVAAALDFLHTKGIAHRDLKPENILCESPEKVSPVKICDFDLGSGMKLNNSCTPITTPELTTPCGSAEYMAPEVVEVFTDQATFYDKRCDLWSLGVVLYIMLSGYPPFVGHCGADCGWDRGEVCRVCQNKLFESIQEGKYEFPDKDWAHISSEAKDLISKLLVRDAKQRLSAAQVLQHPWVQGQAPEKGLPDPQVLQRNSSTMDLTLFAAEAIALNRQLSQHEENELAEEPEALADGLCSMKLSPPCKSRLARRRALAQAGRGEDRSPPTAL

Tests used:
[1] = target: T1, human full-length MKNK1 (Homo sapiens (Human), UniProt Q9BUB5, T344D); assay: MKNK1 kinase assay (TR-FRET); type: biochemical; conditions: 10 μM ATP, 15 min preincubation
Method: MKNK1-inhibitory activity of compounds of the present invention was quantified employing the MKNK1 TR-FRET assay as described in the following paragraphs.
As substrate for the kinase reaction the biotinylated peptide biotin-Ahx-[…] (C-terminus in amide form) was used which can be purchased e.g. form the company Biosyntan (Berlin-Buch, Germany).
(§1) For the assay 50 nL of a 100fold concentrated solution of the test compound in DMSO was pipetted into a black low volume 384well microtiter plate (Greiner Bio-One, Frickenhausen, Germany), 2 μL of a solution of MKNK1 in aqueous assay buffer [50 mM HEPES pH 7.5, 5 mM magnesium chloride, 1.0 mM dithiothreitol, 0.005% (v/v) Nonidet-P40 (Sigma)] was added and the mixture was incubated for 15 min at 22° C. to allow pre-binding of the test compounds to the enzyme before the start of the kinase reaction. Then the kinase reaction was started by the addition of 3 μL of a solution of adenosine-tri-phosphate (ATP, 16.7 μM=>final conc. in the 5 μL assay volume is 10 μM) and substrate (0.1 μM=>final conc. in the 5 μL assay volume is 0.06 μM) in assay buffer and the resulting mixture was incubated for a reaction time of 45 min at 22° C. The concentration of MKNK1 was adjusted depending of the activity of the enzyme lot and was chosen appropriate to have the assay in the linear range, typical concentrations were in the range of 0.05 μg/mL. The reaction was stopped by the addition of 5 μL of a solution of TR-FRET detection reagents (5 nM streptavidine-XL665 [Cisbio Bioassays, Codolet, France] and 1 nM anti-ribosomal protein S6 (pSer236)-antibody from Invitrogen [#44921G] and 1 nM LANCE EU-W1024 labeled ProteinG [Perkin-Elmer, product no. AD0071]) in an aqueous EDTA-solution (100 mM EDTA, 0.1% (w/v) bovine serum albumin in 50 mM HEPES pH 7.5).
(§2) The resulting mixture was incubated for 1 h at 22° C. to allow the formation of complex between the phosphorylated biotinylated peptide and the detection reagents. Subsequently the amount of phosphorylated substrate was evaluated by measurement of the resonance energy transfer from the Eu-chelate to the streptavidine-XL. Therefore, the fluorescence emissions at 620 nm and 665 nm after excitation at 350 nm were measured in a TR-FRET reader, e.g. a Rubystar (BMG Labtechnologies, Offenburg, Germany) or a Viewlux (Perkin-Elmer). The ratio of the emissions at 665 nm and at 622 nm was taken as the measure for the amount of phosphorylated substrate.

[2] = target: T1, human full-length MKNK1; assay: MKNK1 kinase high ATP assay (TR-FRET); type: biochemical; conditions: 2 mM ATP, 15 min preincubation
Method: MKNK1 Kinase High ATP Assay
MKNK1-inhibitory activity at high ATP of compounds of the present invention after their preincubation with MKNK1 was quantified employing the TR-FRET-based MKNK1 high ATP assay as described in the following paragraphs.
As substrate for the kinase reaction the biotinylated peptide biotin-Ahx-[…] (C-terminus in amide form) was used, which can be purchased e.g. from the company Biosyntan (Berlin-Buch, Germany).
as §1, with “3.3 mM=>final” for “16.7 μM=>final”, “2 mM)” for “10 μM)”, “30” for “45”, “0.003” for “0.05”
as §2

IC50 [1] [nM]	IC50 [2] [nM]	SMILES
4	6	c1ccc2oc(-c3cnc4ccc(OCCC5CNCCO5)nn34)cc2c1 (stereo not drawn) [Example 1, 3-(1-Benzofuran-2-yl)-6-[2-(morpholin-2-yl)ethoxy]imidazo[1,2-b]pyridazine]
4	12	c1ccc2oc(-c3cnc4ccc(OCC5CNCCO5)nn34)cc2c1 (stereo not drawn) [Example 3, 3-(1-Benzofuran-2-yl)-6-(morpholin-2-ylmethoxy)imidazo[1,2-b]pyridazine]
–	18	COc1ccc2oc(-c3cnc4ccc(OC[C@H]5CNCCO5)nn34)cc2c1 [Example 5, 3-(5-Methoxy-1-benzofuran-2-yl)-6-[(2R)-morpholin-2-ylmethoxy]imidazo[1,2-b]pyridazine]
–	19	c1ccc2oc(-c3cnc4ccc(OC[C@H]5CNCCO5)nn34)cc2c1 [Example 7, 3-(1-Benzofuran-2-yl)-6-[(2R)-morpholin-2-ylmethoxy]imidazo[1,2-b]pyridazine]
6	20	c1ccc2oc(-c3cnc4ccc(OCC[C@@H]5COCCN5)nn34)cc2c1 [Example 8, 3-(1-Benzofuran-2-yl)-6-{2-[(3R)-morpholin-3-yl]ethoxy}imidazo[1,2-b]pyridazine]
8	23	CC(C)NCCOc1ccc2ncc(-c3cc4ccccc4o3)n2n1 [Example 10, N-(2-{[3-(1-Benzofuran-2-yl)imidazo[1,2-b]pyridazin-6-yl]oxy}ethyl)propan-2-amine]
12	24	c1ccc2oc(-c3cnc4ccc(OC[C@@H]5CNCCO5)nn34)cc2c1 [Example 11, 3-(1-Benzofuran-2-yl)-6-[(2S)-morpholin-2-ylmethoxy]imidazo[1,2-b]pyridazine]
9	25	c1ccc2oc(-c3cnc4ccc(OCC[C@H]5COCCN5)nn34)cc2c1 [Example 13, 3-(1-Benzofuran-2-yl)-6-{2-[(3S)-morpholin-3-yl]ethoxy}imidazo[1,2-b]pyridazine]
16	32	c1ccc2oc(-c3cnc4ccc(OCC5CCCCN5)nn34)cc2c1 (stereo not drawn) [Example 16, 3-(1-Benzofuran-2-yl)-6-(piperidin-2-ylmethoxy)imidazo[1,2-b]pyridazine]
25	53	c1ccc2oc(-c3cnc4ccc(OC5CCCNC5)nn34)cc2c1 (stereo not drawn) [Example 22, 3-(1-Benzofuran-2-yl)-6-(piperidin-3-yloxy)imidazo[1,2-b]pyridazine]
59	114	CC(C)CNCC(Oc1ccc2ncc(-c3cc4ccccc4o3)n2n1)c1ccccc1 (stereo not drawn) [Example 28, N-(2-{[3-(1-Benzofuran-2-yl)imidazo[1,2-b]pyridazin-6-yl]oxy}-2-phenylethyl)-2-methylpropan-1-amine]
28	53	c1ccc2oc(-c3cnc4ccc(O[C@@H]5CCCNC5)nn34)cc2c1 [Example 32, 3-(1-Benzofuran-2-yl)-6-[(3R)-piperidin-3-yloxy]imidazo[1,2-b]pyridazine]
10	11	Fc1ccc2oc(-c3cnc4ccc(OC[C@H]5CNCCO5)nn34)cc2c1 [Example 34, 3-(5-Fluoro-1-benzofuran-2-yl)-6-[(2R)-morpholin-2-ylmethoxy]imidazo[1,2-b]-pyridazine]
